# Binding of CDR-mutated scFvs to a peptide of the spike HR2 region

Binding partner: SARS-CoV-2 spike HR2 peptide, sequence PDVDLGDISGINAS.

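Phage display of a naive human antibody library on the peptide gave the parent. This is the validation round: designs drawn from the data on random variants, tested in the same kind of assay. Their group label is 14L_En_Gen (En: ensemble of fine-tuned language models; Gen: genetic algorithm). The assay is AlphaSeq: two haploid yeast populations carry antibody and antigen on their surface. The frequency of each diploid, read from paired DNA barcodes, reflects how well the two displayed proteins bind. A regression on co-assayed BCL2-family reference pairs converts the normalised counts of each replicate to an apparent Kd. Mating was done six times.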

Parent scFv Ab-14: VH joined to VL by a 15-residue (Gly4Ser)3 linker. Changes lie in the light chain CDRs alone.
VH: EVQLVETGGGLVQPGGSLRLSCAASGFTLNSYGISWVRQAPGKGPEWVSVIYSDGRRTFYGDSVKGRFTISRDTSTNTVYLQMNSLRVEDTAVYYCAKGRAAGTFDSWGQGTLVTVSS
VL: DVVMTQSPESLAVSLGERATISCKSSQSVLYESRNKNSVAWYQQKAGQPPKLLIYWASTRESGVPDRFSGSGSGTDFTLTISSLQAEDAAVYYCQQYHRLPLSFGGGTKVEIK

Each variant is given by its three light chain CDRs, as the data file delimits them; those of the parent are KSSQSVLYESRNKNSVA, WASTRES, QQYHRLPLS.
Affinities are written as log10 Kd with Kd in nM; a lower number is a better binder.
An entry "ND" has no value in the source: the pair was not observed among the diploids in that replicate. This suggests poor binding but is not conclusive.
A sequence measured in both rounds can read differently, since the two assays cover different ranges.

CDR-L1 | CDR-L2 | CDR-L3 | replicates, log10 nM | signal with controls
HITMGMYVSGRHMSNIA | QAETRAK | QQYDRLPLI | 0.50 / 0.68 / 0.57 / 0.59 / 0.66 / 0.99 | 0 of 18
KIGMTLNQLQQKKNNVA | DLVMREN | QQYFRLPLS | 0.42 / -0.03 / -0.01 / -0.13 / 0.16 / 0.26 | 1 of 18 (2.51)
MISSVMGINNMYQSSVA | QAEERVE | QQYDRLPLA | 1.34 / ND / ND / ND / 2.77 / 2.79 | 0 of 18
NIYQAMHTLMQQKNNVA | DVTNRNR | QQYNRLPLS | 0.24 / 0.42 / 0.35 / -0.04 / 0.44 / 0.35 | 0 of 18
MMSSLMGYESRHINNVA | QTSTRED | QQYDRLPLI | 0.69 / -0.18 / -0.25 / 0.00 / 0.09 / 0.28 | 1 of 18 (3.30)
KISQMIRVGSTHSNSIA | EEQTRAK | QQYHRLPLS | 0.77 / 0.47 / 1.29 / 0.36 / 0.70 / 1.10 | 0 of 18
KIGMTLNMLMHKKNNVA | DLVERAN | QQYFRLPLS | 0.17 / 0.42 / 0.20 / -0.09 / -0.01 / 0.01 | 0 of 18
TIGQTLMYGMRNSSNVA | EVSERLN | QQYDRLPLI | ND / ND / ND / 1.63 / 1.95 / 2.21 | 2 of 18 (1.91)
TISQLYNQALGMRNNVA | NNQTRED | QQYKRLPLS | 1.44 / 2.37 / 1.04 / 1.70 / 1.84 / 2.08 | 0 of 18
MINQLYNMGSFAINSVA | QASERCN | QQYDRLPLI | 0.92 / 0.70 / 0.87 / 1.24 / 0.98 / 0.96 | 1 of 18 (2.94)
QIGGLLNFESQKVNNVA | QMETRVN | QQYDRLPLS | 0.23 / 0.75 / 0.34 / 0.30 / 0.48 / 0.71 | 0 of 18
KISQMVKVGATHNNSIA | EEQTRAK | QQYHRLPLA | 1.19 / 1.17 / 1.06 / 1.02 / 0.98 / 1.86 | 2 of 18 (2.91)
KISMLINQTFESGNNVA | EMATREN | QQYHRLPLS | 1.99 / 1.52 / 1.62 / 1.64 / 1.40 / 1.80 | 1 of 18 (4.06)
MMSQVTGMGQRHRNNVA | QTSTREA | QQYDRLPLV | 0.53 / 0.83 / 1.23 / 1.94 / 1.27 / 0.84 | 2 of 18 (3.18)
MISNVLNTLTRVGNNVA | DLSERED | QQYFRLPLS | 1.57 / 1.39 / 1.10 / 0.93 / 1.16 / 1.49 | 1 of 18 (3.22)
KIGMTLNQLMHKKNNVA | DLVERET | QQYHRLPLS | 0.35 / 0.46 / 0.74 / 0.30 / 0.63 / 0.51 | 0 of 18
KIGATLNMMAHKKNNVA | DLVTREN | QQYHRLPLS | 1.01 / 1.04 / 0.78 / 0.85 / 0.97 / 1.19 | 1 of 18 (1.95)
KIGATLNTLYEKQNNVA | DLVEREN | QQYFRLPLS | 1.07 / 0.26 / 0.29 / 1.26 / 0.12 / 0.70 | 0 of 18
KLTSTMRFEQKKKNNIA | EVSMRTK | QQYNRLPLA | 1.09 / 1.12 / 1.11 / 1.87 / 2.06 / 1.09 | 0 of 18
MMSQVTGLGQRTRNNVA | QTSTREP | QQYDRLPLI | 0.36 / 0.50 / 0.24 / 0.05 / 0.28 / 0.40 | 0 of 18
MVNGIMDHLSKQVNNVA | EMTTREE | QQYERLPLS | ND / 2.12 / 0.73 / 0.98 / 1.40 / 0.66 | 0 of 18
TLYGLSMSMAKNKNNVA | EMTTRED | QQYDRLPLI | 0.60 / 0.56 / 0.10 / 0.33 / 0.45 / 0.45 | 2 of 18 (2.71)
KVSEFMRGMMRQKDSIA | DNETRQS | QQYDRLPLS | ND / 1.42 / 0.84 / 2.12 / 1.36 / 2.05 | 0 of 18
TISQMSTLFSQSINNVA | EVSTRIE | QQYDRLPLA | 1.37 / 0.63 / 0.36 / 0.62 / 0.06 / 0.53 | 0 of 18
MISQLINMGQFAINSVA | QASIRCN | QQYDRLPLM | ND / ND / ND / ND / ND / ND | 0 of 18
KISGLSNHESSVHNNVA | ENVTRVQ | QQYFRLPLA | 0.77 / 1.44 / 0.87 / 1.12 / 1.00 / 1.32 | 1 of 18 (2.50)
KIGQTLNQLMHQKNNVA | DLVMREK | QQYTRLPLS | 0.75 / -0.27 / 0.40 / 0.20 / 0.76 / 1.11 | 0 of 18
KIGATLNQLMHQKNNVA | DLVMREN | QQYFRLPLS | ND / ND / 2.34 / ND / ND / ND | 0 of 18
MISQLYNMGTFAINSVA | QASLRYN | QQYDRLPLM | ND / ND / ND / ND / ND / ND | 0 of 18
HMSMLTLQGMRHRNSVA | QMTTREN | QQYDHLPLS | ND / 2.27 / 1.67 / 1.39 / 2.51 / 1.55 | 1 of 18 (1.95)
MLSGVLHMLGTKKNSIA | DLVMRAN | QQYQRLPLS | ND / 0.99 / 0.50 / ND / 0.52 / ND | 0 of 18
HLGWATMLEETVRNSVA | NNSTRED | QQYDRLPLS | 1.28 / 1.28 / 1.56 / 0.94 / 1.29 / 1.14 | 0 of 18
RLSASQGIQSVERNSVA | QNSTREE | QQYDHLPLS | 1.59 / 1.54 / ND / ND / ND / ND | 0 of 18
TLSQMSGVESVKHNNVA | ENSTREK | QQYDRLPLS | ND / ND / ND / ND / ND / ND | 0 of 18
IIDQIMYHGNKSANSIA | QASERLN | QQYHHLPLI | 1.87 / 2.37 / 2.09 / 2.19 / 1.59 / 2.25 | 1 of 18 (3.06)
TISQLMNMGQFAINSVA | QASIRNM | QQYDRLPLI | 1.67 / 2.52 / 1.49 / 2.15 / 1.30 / 1.82 | 1 of 18 (2.34)
HITYGMMVGGRHSKSIA | QAETRAK | QQYDRLPLI | ND / ND / ND / 1.57 / ND / 1.69 | 0 of 18
MLSQMWAIGQKVSNSVA | QANMRFN | QQYDRLPLE | 2.01 / 1.64 / 1.49 / 0.95 / 2.36 / 2.45 | 0 of 18
TLYGLSNSMSKNSNNVA | EMTTREK | QQYDRLPLI | 1.61 / 1.22 / 1.68 / 2.45 / 1.58 / 2.22 | 1 of 18 (3.01)
MISQLMNLGQFAINSVA | QASIRNA | QQYDRLPLM | ND / 1.61 / ND / ND / ND / 1.88 | 0 of 18
KLTSLTGTEKVRGNNVA | EMETRER | QQYNRLPLA | 0.59 / 0.38 / 0.51 / 1.15 / 0.46 / 0.46 | 1 of 18 (1.91)
MISQLMNMGQFAINSVA | QASIRNA | QQYDRLPLM | 1.45 / 1.74 / 2.14 / 1.44 / 1.73 / 1.86 | 1 of 18 (1.86)
KITATMRFEQKISNNIA | EVTTRSK | QQYFRLPLS | 1.02 / 0.71 / 0.82 / 0.17 / 0.42 / 0.34 | 0 of 18
KIGVTLNTLMHQKNNVA | DLVTREN | QQYFRLPLS | 0.56 / 0.48 / 0.22 / 0.55 / 0.69 / 0.53 | 1 of 18 (2.65)
IVSQLMLWGYHAKNSIA | EAQTRLN | QQYDRLPLM | 1.55 / 1.76 / ND / 0.78 / ND / 0.83 | 0 of 18
TISQMTSWMSNKKNNVA | EVSTREA | QQYDRLPLM | 2.73 / ND / ND / 0.40 / 0.26 / 1.70 | 0 of 18
TISQITSLFSQTINNVA | EVSTREA | QQYDRLPLM | 0.92 / 1.04 / 1.10 / 1.08 / 0.86 / 1.12 | 0 of 18

The opening 7 entries, copied out:

CDR-L1	CDR-L2	CDR-L3	replicates, log10 nM	signal with controls
HITMGMYVSGRHMSNIA	QAETRAK	QQYDRLPLI	0.50 / 0.68 / 0.57 / 0.59 / 0.66 / 0.99	0 of 18
KIGMTLNQLQQKKNNVA	DLVMREN	QQYFRLPLS	0.42 / -0.03 / -0.01 / -0.13 / 0.16 / 0.26	1 of 18 (2.51)
MISSVMGINNMYQSSVA	QAEERVE	QQYDRLPLA	1.34 / ND / ND / ND / 2.77 / 2.79	0 of 18
NIYQAMHTLMQQKNNVA	DVTNRNR	QQYNRLPLS	0.24 / 0.42 / 0.35 / -0.04 / 0.44 / 0.35	0 of 18
MMSSLMGYESRHINNVA	QTSTRED	QQYDRLPLI	0.69 / -0.18 / -0.25 / 0.00 / 0.09 / 0.28	1 of 18 (3.30)
KISQMIRVGSTHSNSIA	EEQTRAK	QQYHRLPLS	0.77 / 0.47 / 1.29 / 0.36 / 0.70 / 1.10	0 of 18
KIGMTLNMLMHKKNNVA	DLVERAN	QQYFRLPLS	0.17 / 0.42 / 0.20 / -0.09 / -0.01 / 0.01	0 of 18

The authors averaged sequences with at least three values out of six and counted those with two or fewer as poor binders.
As a blank, each scFv also met three strains without target: over all light chain designs, 4% of these pairings were detected, typically at 2.64 and seldom below 1.59. For each scFv, signals with the empty controls are counted beside the result, with their mean in brackets.
The parent sequence was in this pool as ten entries: three were never detected, three once, and four in most replicates, with averages from 0.34 to 2.37.

Values reported by Li et al. 2023, doi:10.1038/s41467-023-39022-2 (FLAb copy).